The results in this text go back to PubChem BioAssay (Tox21).

Values joined by “and” are separate entries in the source; they are usually repeats but may differ in a detail not shown here. Equal values may be shown once. Shown are results outside the selection of hits, which stands elsewhere. Records with an inconclusive call do not appear. More than one record can exist for a structure, and the calls need not agree. Active and inactive are the calls of the source. The call rests on the fitted dose curve; in most records, active means well fitted curve in the direction sought with a large enough effect in the repeat runs; inconclusive means weak or mixed curves; inactive means no such curve, though single readings can be large; an effect the other way counts as inactive or inconclusive.
On the % scale 0 is the no-effect control and ±100 the full control effect; potency means the concentration at half of the fitted maximal effect.

In the first test the target is Nuclear receptor subfamily 1 group I member 2 (Homo sapiens) (UniProt O75469). In words: Human pregnane X receptor (PXR) small molecule agonists, qHTS assay (AID 1346982). Further: nearly all actives have a fitted effect of over 35% in size. The note with it: PXR-Luc HepG2, CYP3A4 luciferase reporter, 24 h; series mostly up to 92.4 µM; activation: at the top concentration. Put shortly: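 PXR-Luc HepG2 cells (CYP3A4 promoter-driven luciferase) were seeded in medium with 5% charcoal-stripped FBS, left 5 hr at 37 C, then exposed to compounds in DMSO for 24 hr. Luminescence was read after ONE-Glo addition.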
(In general: Quantitative high-throughput screening tests each substance at several concentrations.)
Consider `N#CS`, for which the Potency result is “inactive”.

Regarding `CC(C)N(CCC(C(N)=O)(c1ccccc1)c1ccccn1)C(C)C` (stereo unspecified), the “activation” value is inactive: 19.5% [at 42.5 µM].

On to `O=C(O)CC(O)(CC(=O)O)C(=O)O`, for which the Potency entry was “inactive”.

As for `CN1CCN(C(=O)O[C@H]2c3nccnc3C(=O)N2c2ccc(Cl)cn2)CC1`, the “activation” value was inactive: -2.62% [at 42.5 µM].

With `O=[N+]([O-])O.O=[N+]([O-])O.[Cd]`, the Potency was active: 433 nM.

For `Oc1cccc2cccnc12`, the Potency was active: 1.3 µM and active: 770 nM and inactive.

On to `Oc1ccc2c3c1O[C@H]1[C@@H](O)C=C[C@H]4[C@@H](C2)NCC[C@@]341`, for which the “activation” value was inactive: -1.9%.

As to `CC(NC(C)(C)C)C(=O)c1cccc(Cl)c1` (stereo unspecified), the Potency result was “inactive”.

In the case of `CC(=O)O`, the Potency entry is “inactive”.

Turning to `CC(=O)O.CC(=O)O.CC(=O)O.CC(=O)O.CC(=O)O.CC(=O)O.CC(=O)O.O.O.[Cr].[Cr].[Cr]`, the “activation” value was inactive: 5.08%.

Take `C=CCN1CC[C@]23CCCC[C@H]2[C@H]1Cc1ccc(O)cc13`: the “activation” value is inactive: 6.31% [at 42.5 µM].

Regarding `N[C@@H](Cc1ccc(N(CCCl)CCCl)cc1)C(=O)O`, the “activation” value was inactive: 19.1% [at 42.5 µM].

As to `CC(=O)[O-].CC(=O)[O-].[Co+2]`, the “activation” value was inactive: 9.06%.

Turning to `CC(=O)[O-].CC(=O)[O-].[Hg+2]`, the Potency was active: 2430 nM.

Consider `COC(=O)[C@@H](N)CCCN/C(N)=N/[N+](=O)[O-]`, for which the “activation” value is inactive: -4.12% [at 42.5 µM].

Regarding `N#CC(Br)(Br)C(N)=O`, the “activation” value is inactive: -6.9%.

On to `CC(=O)[O-].CC(=O)[O-].O.O.[Cd+2]`, for which the Potency was active: 120 nM.

As to `NC(=O)CN1CCCC1=O`, the Potency entry is “inactive”.

In the case of `CC(=O)[O-].[Tl+]`, the “activation” value is inactive: -14.8%.

Consider `C#C[C@]1(O)CC[C@H]2[C@@H]3CCC4=CC(=O)CC[C@]4(C)[C@H]3CC[C@@]21C`, for which the Potency result was “inactive”.

Take `CC(=O)[O-].CC(=O)[O-].CC(=O)[O-].[Cr+3]`: the “activation” value was inactive: 18.3%.

As for `O=[N+]([O-])[O-].[Tl+]`, the “activation” value is inactive: -15.2%.

For `COc1cc(-c2ccc(N)c(OC)c2)ccc1N`, the Potency is active: 61.1 µM [middle of 4 runs].

With `CC1(C)[C@H](C(=O)O[C@H](C#N)c2cccc(Oc3ccccc3)c2)[C@@H]1C=C(Br)Br`, the Potency was active: 8.99 µM and active: 4.86 µM.

Regarding `CC(=O)[O-].CC(=O)[O-].CC(=O)[O-].[Sb+3]`, the activation is inactive: 1.64% [at 3.27 µM].

Turning to `COc1ccc2c3c1O[C@H]1[C@H](O)CC[C@H]4[C@@H](C2)N(C)CC[C@@]341`, the “activation” value is inactive: -25%.

For the compound `CC(=O)[O-].CC(=O)[O-].O.O.[Zn+2]`, the “activation” value was inactive: 4.11%.

For a further test the target is unchanged. In words: CYP3A4 induction through human pregnane X receptor (PXR) by small molecules, qHTS assay (AID 1346984). Further: nearly all actives have a fitted effect of over 40% in size. Particulars: DPX-2 HepG2 PXR, CYP3A4-luciferin luminescence, 24 h; series mostly up to 46.1 µM; activation: at the top concentration. Put shortly:
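DPX-2 cells (HepG2 co-transfected with PXR and CYP3A4 promoter-luciferase) treated with compounds 24 h at 37C; luciferin-IPA CYP3A4 substrate 3uM final added for 3 h, then One-Glo; luminescence read. qHTS format.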
In the case of `Oc1cccc2cccnc12`, the Potency is active: 4470 nM.

With `CC(NC(C)(C)C)C(=O)c1cccc(Cl)c1` (stereo unspecified), the “activation” value is inactive: 5.43%.

In the case of `C=CCN1CC[C@]23CCCC[C@H]2[C@H]1Cc1ccc(O)cc13`, the “activation” value is inactive: -9.28%.

As to `COC(=O)[C@@H](N)CCCN/C(N)=N/[N+](=O)[O-]`, the “activation” value is inactive: -3.45%.

For another test the target is unchanged. In words: Human pregnane X receptor (PXR) activation by small molecules, qHTS assay (AID 1346985). Further: nearly all actives have a fitted effect of over 40% in size. Particulars: DPX-2 HepG2 CYP3A4-luciferase, 24 h; series mostly up to 38.3 µM; activation: at the top concentration.
As to `Oc1cccc2cccnc12`, the “activation” value is inactive: 5.08%.

Regarding `CC(NC(C)(C)C)C(=O)c1cccc(Cl)c1` (stereo unspecified), the “activation” value is inactive: -6.68%.

For `C=CCN1CC[C@]23CCCC[C@H]2[C@H]1Cc1ccc(O)cc13`, the “activation” value is inactive: -9.95%.

`N[C@@H](Cc1ccc(N(CCCl)CCCl)cc1)C(=O)O`: the Potency was active: 25100 nM.

For the compound `COC(=O)[C@@H](N)CCCN/C(N)=N/[N+](=O)[O-]`, the “activation” value is inactive: -5.18%.
